This note sets out measurements from ChEMBL document CHEMBL1142871, “Flipped out: structure-guided design of selective pyrazolylpyrrole ERK inhibitors” (J Med Chem, 2007).

Protein sequences, listed by entry. Tags and fused reporters are not part of them.
UniProt P28482, whole entry: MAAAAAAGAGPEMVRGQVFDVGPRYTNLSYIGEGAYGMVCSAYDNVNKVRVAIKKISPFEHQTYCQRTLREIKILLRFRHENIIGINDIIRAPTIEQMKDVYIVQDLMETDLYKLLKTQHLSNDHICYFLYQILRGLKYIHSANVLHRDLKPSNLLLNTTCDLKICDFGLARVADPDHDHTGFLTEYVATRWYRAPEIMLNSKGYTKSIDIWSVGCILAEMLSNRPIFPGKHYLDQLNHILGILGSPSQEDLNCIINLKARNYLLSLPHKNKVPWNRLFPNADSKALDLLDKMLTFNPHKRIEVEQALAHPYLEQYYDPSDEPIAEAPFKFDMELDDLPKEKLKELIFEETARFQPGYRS

pKi: −log10 of the molar value.

This assay concerns the target Mitogen-activated protein kinase 1 (Homo sapiens, UniProt P28482). Put plainly: Inhibition of ERK2 by spectrophotometric coupled-enzyme assay.

For the molecule `O=C(N[C@H](CO)c1ccc(F)c(Cl)c1)c1cc(-c2n[nH]cc2-c2cccc(Cl)c2)c[nH]1`, the pKi was 8.70.
